{
  "source": "patent US11123311B2",
  "about": "“Methods of treating mental disorders” (The Regents of the University of California, priority 2016, dated 2021)",
  "assay": "experimental logP",
  "type": "physicochemical",
  "data": [
    {"smiles": "CC(C)C(=O)N1CCC(NC(=O)Nc2ccc(C(F)(F)F)c(F)c2)CC1", "note": "[Compound 20]", "values": [
      {"measurement": "Exp/ logP", "result": 4.40}
    ]}
  ]
}
